Experiment [1] relates to Plasmodium falciparum, strain NF54, erythrocytic stages.
Experiment [2] has as its system Trypanosoma brucei rhodesiense, STIB 900 strain, bloodstream forms.

Regarding `CC1=C(Cc2ccc(NC(=O)C(F)(F)F)cc2)C(=O)c2ccccc2C1=O` [Compound 2l, 2-Methyl-3-{[4-(2,2,2-trifluoroacetamido)phenyl]methyl}-1,4-naphthoquinone], the “SI (P. falc.)” value in experiment [1] is 109. Also, the “SI (T. b. rhod.)” value in experiment [2] came out at 1.
Consider `CC1=C(Cc2cccc(NC(=O)CCC(F)(F)F)c2)C(=O)c2ccccc2C1=O` [Compound 2o, 2-Methyl-3-{[3-(4,4,4-trifluorobutanamido)phenyl]methyl}-1,4-naphthoquinone], for which the “SI (P. falc.)” value in experiment [1] is given as 131. Moreover, the “SI (T. b. rhod.)” value in experiment [2] is given as 2.
As for `O=C1C=C(Cc2ccc(F)cc2C(F)(F)F)C(=O)c2ccccc21` [Compound 4d, 2-{[4-Fluoro-2-(trifluoromethyl)phenyl]methyl}-1,4-naphthoquinone], the “SI (P. falc.)” value in experiment [1] was determined as 17. In addition, the “SI (T. b. rhod.)” value in experiment [2] was determined as 22.
The like results for `CC1=C(Cc2cccc(NC(=O)C(F)(F)F)c2)C(=O)c2ccccc2C1=O` [Compound 2m, 2-Methyl-3-{[3-(2,2,2-trifluoroacetamido)phenyl]methyl}-1,4-naphthoquinone] were, in that order, 43 and 1.
`CC1=C(Cc2ccc([N+](=O)[O-])cc2)C(=O)c2ccccc2C1=O` [Compound 2g, 2-Methyl-3-[(4-nitrophenyl)methyl]-1,4-naphthoquinone]: the “SI (P. falc.)” value in experiment [1] amounted to 172. Also, the “SI (T. b. rhod.)” value in experiment [2] is recorded as 1.
The corresponding values for `O=C1C=C(Cc2ccc(Cl)nc2)C(=O)c2ccccc21` [Compound 4e, 2-[(6-Chloropyridin-3-yl)methyl]-1,4-naphthoquinone] are 2 and 8.
The like results for `CC1=C(Cc2cc(OC(F)(F)F)ccc2F)C(=O)c2ccccc2C1=O` [Compound 2s, 2-{[2-Fluoro-5-(trifluoromethoxy)phenyl]methyl}-3-methyl-1,4-naphthoquinone] were, in that order, 2166 and 1.
Regarding `CC1=C(Cc2ccc(OC(F)(F)F)cc2)C(=O)c2ccccc2C1=O` [Compound 2q, 2-Methyl-3-{[4-(trifluoromethoxy)phenyl]methyl}-1,4-naphthoquinone], in experiment [1], the “SI (P. falc.)” value stood at 4250. The “SI (T. b. rhod.)” value in experiment [2] is given as 2.
The like results for `CC1=C(Cc2ccc(F)cc2)C(=O)c2ccccc2C1=O` [Compound 2p, 2-[(4-Fluorophenyl)methyl]-3-methyl-1,4-naphthoquinone] were, in that order, 1194 and 2.
With `O=C1C(Cc2ccccc2)=C(C(F)(F)F)C(=O)c2ccccc21` [Compound 5a, 2-Benzyl-3-(trifluoromethyl)-1,4-naphthoquinone], in experiment [1], the “SI (P. falc.)” value is 3. Further, in experiment [2], the “SI (T. b. rhod.)” value is given as 6.
The like results for `CC1=C(Cc2cccc(OC(F)(F)F)c2)C(=O)c2ccccc2C1=O` [Compound 2r, 2-Methyl-3-{[3-(trifluoromethoxy)phenyl]methyl}-1,4-naphthoquinone] were, in that order, 1641 and 3.
On to `CC1=C(Cc2ccc(Cl)nc2)C(=O)c2ccccc2C1=O` [Compound 2f, 2-[(6-Chloropyridin-3-yl)methyl]-3-methyl-1,4-naphthoquinone], for which the “SI (P. falc.)” value in experiment [1] is recorded as 654. The “SI (T. b. rhod.)” value in experiment [2] came out at 3.
The like results for `CC1=C(Cc2ccccc2)C(=O)c2ccccc2C1=O` [Compound 2a, 2-Benzyl-3-methyl-1,4-naphthoquinone] were, in that order, 126 and 1.
The like results for `CC1=C(Cc2ccc(C(F)(F)F)cc2F)C(=O)c2ccccc2C1=O` [Compound 2c, 2-{[2-Fluoro-4-(trifluoromethyl)phenyl]methyl}-3-methyl-1,4-naphthoquinone] were, in that order, 5377 and 1.
As to `CC1=C(Cc2ccc([N+](=O)[O-])cc2F)C(=O)c2ccccc2C1=O` [Compound 2h, 2-[(2-Fluoro-4-nitrophenyl)methyl]-3-methyl-1,4-naphthoquinone], the “SI (P. falc.)” value in experiment [1] is given as 810. In addition, the “SI (T. b. rhod.)” value in experiment [2] was 1.
The corresponding values for `O=C1C=C(Cc2ccc(C(F)(F)F)cc2)C(=O)c2ccccc21` [Compound 4b, 2-{[4-(Trifluoromethyl)phenyl]methyl}-1,4-naphthoquinone] are 28 and 38.
As to `O=C1C(Cc2ccc(C(F)(F)F)cc2)=C(C(F)(F)F)C(=O)c2ccccc21` [Compound 5b, 2-(Trifluoromethyl)-3-{[4-(trifluoromethyl)phenyl]methyl}-1,4-naphthoquinone], the “SI (P. falc.)” value in experiment [1] is listed as 1. Besides, in experiment [2], the “SI (T. b. rhod.)” value worked out at 1.
Take `O=C1C=C(Cc2ccccc2)C(=O)c2ccccc21` [Compound 4a, 2-Benzyl-1,4-naphthoquinone]: in experiment [1], the “SI (P. falc.)” value is 22. The “SI (T. b. rhod.)” value in experiment [2] was found to be 193.
On to `CC1=C(Cc2ccc(F)cc2C(F)(F)F)C(=O)c2ccccc2C1=O` [Compound 2d, 2-{[4-Fluoro-2-(trifluoromethyl)phenyl]methyl}-3-methyl-1,4-naphthoquinone], for which, in experiment [1], the “SI (P. falc.)” value stood at 3099. In addition, the “SI (T. b. rhod.)” value in experiment [2] was determined as 3.
The like results for `O=C1C=C(Cc2ccc(C(F)(F)F)cc2F)C(=O)c2ccccc21` [Compound 4c, 2-{[2-Fluoro-4-(trifluoromethyl)phenyl]methyl}-1,4-naphthoquinone] were, in that order, 21 and 47.
For `CC(=O)Nc1cccc(CC2=C(C)C(=O)c3ccccc3C2=O)c1` [Compound 2k, 2-[(3-Acetamidophenyl)methyl]-3-methyl-1,4-naphthoquinone], the “SI (P. falc.)” value in experiment [1] came to 22.
In the case of `CC1=C(Cc2cc(C(F)(F)F)ccc2F)C(=O)c2ccccc2C1=O` [Compound 2e, 2-{[2-Fluoro-5-(trifluoromethyl)phenyl]methyl}-3-methyl-1,4-naphthoquinone], the “SI (P. falc.)” value in experiment [1] was determined as 7495.
`CC(=O)Nc1ccc(CC2=C(C)C(=O)c3ccccc3C2=O)cc1` [Compound 2j, 2-[(4-Acetamidophenyl)methyl]-3-methyl-1,4-naphthoquinone]: the “SI (P. falc.)” value in experiment [1] is given as 24. Further, the “SI (T. b. rhod.)” value in experiment [2] was determined as 1.
In the case of `CC1=C(Cc2cc(F)c(F)cc2F)C(=O)c2ccccc2C1=O` [Compound 2i, 2-Methyl-3-[(2,4,5-trifluorophenyl)methyl]-1,4-naphthoquinone], the “SI (P. falc.)” value in experiment [1] is reported as 1231. Besides, the “SI (T. b. rhod.)” value in experiment [2] came out at 2.

(Values after PMC11900971 (International Journal of Molecular Sciences, 2025).)
